# According to publication PMC9768162, “Synthesis of macrocyclic nucleoside antibacterials and their interactions with MraY” (Nature Communications, 2022):
# Amino acid sequences for entries named in this document (tags omitted).
# UniProt O66465, whole entry: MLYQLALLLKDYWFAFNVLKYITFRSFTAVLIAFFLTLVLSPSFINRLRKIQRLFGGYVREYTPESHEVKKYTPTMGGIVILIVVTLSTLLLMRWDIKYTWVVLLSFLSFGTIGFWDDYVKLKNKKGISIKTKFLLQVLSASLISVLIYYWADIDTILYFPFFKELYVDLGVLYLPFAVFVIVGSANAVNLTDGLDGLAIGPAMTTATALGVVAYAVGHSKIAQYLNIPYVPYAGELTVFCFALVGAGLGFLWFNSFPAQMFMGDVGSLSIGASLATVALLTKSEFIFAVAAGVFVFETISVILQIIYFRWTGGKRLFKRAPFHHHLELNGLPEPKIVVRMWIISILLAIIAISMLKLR
# Molecular target: MraYAA (Aquifex aeolicus, UniProt O66465)
# Assay: UMP-Glo assay
# Details: ratio of IC50 values, SPM-1 vs SPM-2
compound,measurement,value
CCCCCCCCCCCCCCCC(=O)O[C@@H]1[C@@H]2CN(C[C@@H]1O)[C@H](C(=O)O)[C@@H]([C@H]1O[C@@H](n3ccc(=O)[nH]c3=O)[C@H](O)[C@@H]1O)O[C@@H]1O[C@H](CN2)[C@@H](O)[C@H]1O [SPM-1],fold more potent than SPM-2 against MraYAA,54 fold
